Only a part is listed here, and it is no random draw.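 Single-concentration screen, 48 h exposure, 96-well plates. Endpoint: percent growth. Below 10 = active.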 Activity calls are given as the source filed them.
Experiments:
Assay in all cases: NCI-60 one-dose screen, 48 h (100 = growth as untreated, 0 = no growth, -100 = all killed)
Settings in all cases: 10 µM
MOLT-4 leukemia = system: MOLT-4 leukemia
SR leukemia = system: SR leukemia
RPMI-8226 leukemia = system: RPMI-8226 leukemia
OVCAR-8 ovarian = system: OVCAR-8 ovarian
OVCAR-5 ovarian = system: OVCAR-5 ovarian
OVCAR-4 ovarian = system: OVCAR-4 ovarian
SK-OV-3 ovarian = system: SK-OV-3 ovarian
IGROV1 ovarian = system: IGROV1 ovarian
HS 578T breast = system: HS 578T breast
OVCAR-3 ovarian = system: OVCAR-3 ovarian

SMILES	growth (MOLT-4 leukemia)	growth (SR leukemia)	growth (RPMI-8226 leukemia)	growth (OVCAR-8 ovarian)	growth (OVCAR-5 ovarian)	growth (OVCAR-4 ovarian)	growth (SK-OV-3 ovarian)	growth (IGROV1 ovarian)	growth (HS 578T breast)	growth (OVCAR-3 ovarian)
Cc1c([N+](=O)[O-])c(C)c([N+](=O)[O-])c(C)c1[N+](=O)[O-]	inactive: 102%	inactive: 101%	inactive: 100%	inactive: 112%	inactive: 95.8%	inactive: 123%	inactive: 107%	inactive: 105%	inactive: 106%	–
COc1ccc(C(O)(C(=O)OCCN2CCCCC2)c2ccc(OC)cc2)cc1	inactive: 106%	inactive: 115%	inactive: 88.5%	inactive: 99.4%	inactive: 91.4%	inactive: 110%	inactive: 119%	inactive: 71%	inactive: 99%	inactive: 92.2%
CCOC(=O)CSc1c(N)c(C)nn1C.O=[N+]([O-])c1cc([N+](=O)[O-])c(O)c([N+](=O)[O-])c1	inactive: 99.2%	inactive: 114%	inactive: 99.6%	inactive: 116%	inactive: 109%	inactive: 103%	inactive: 102%	–	inactive: 115%	inactive: 110%
O=C(Cl)c1c([N+](=O)[O-])cc([N+](=O)[O-])cc1[N+](=O)[O-]	inactive: 71.8%	inactive: 13.9%	active: 5.23%	inactive: 84.4%	inactive: 119%	inactive: 73.2%	inactive: 126%	inactive: 92.7%	inactive: 15.1%	active: -73.4%
CCCCCCCOP(=O)(CC)OCCCCCCC	inactive: 105%	–	inactive: 103%	inactive: 93.2%	inactive: 99.8%	inactive: 91.4%	inactive: 95.3%	inactive: 97.4%	inactive: 103%	inactive: 111%
CCOP(=O)(CC)OCC	inactive: 96%	inactive: 101%	inactive: 101%	inactive: 98.1%	inactive: 97.8%	inactive: 103%	inactive: 113%	inactive: 113%	inactive: 95.4%	inactive: 125%
O=[N+]([O-])OCCOc1ccc([N+](=O)[O-])cc1[N+](=O)[O-]	inactive: 101%	inactive: 89.5%	inactive: 109%	inactive: 99%	inactive: 103%	inactive: 114%	inactive: 117%	–	inactive: 105%	inactive: 126%
